Results from article PMC11753436.

B1: Tau RD(LM)-CFP [human] / Tau RD(LM)-YFP [human] (parent)
chain 1: QTAPVPMPDLKNVKSKIGSTENLKHQPGGGKVQIINKKLDLSNVQSKCGSKDNIKHVLGGGSVQIVYKPVDLSKVTSKCGSLGNIHHKPGGGQMEVKSEKLDFKDRVQSKIGSLDNITHVPGGGNKKIETHK
chain 2: B1 chain 1

Variants of: B1
Assay: flow cytometry FRET incorporation assay in DS13 cells
Conditions: with Tau RD(LM)-YFP [human]; 24 hours after lentiviral transduction; parent: 190; read off a plot

| Variant | response [MFI] |
| --- | --- |
| chain 1 I34P I65P | 70 |

Same assay, conditions: with Tau RD(LM)-YFP [human]; 48 hours after lentiviral transduction; parent: 250; read off a plot

| Variant | response [MFI] |
| --- | --- |
| chain 1 I34P I65P | 70 |

Same assay, conditions: with Tau RD(LM)-YFP [human]; 72 hours after lentiviral transduction; parent: 230; read off a plot

| Variant | response [MFI] |
| --- | --- |
| chain 1 I34P I65P | 63 |
